# Measured values: patent US8981112B2, “Inhibitors of β-secretase” (Boehringer Ingelheim International GmbH, priority 2012, dated 2015)
# The chains behind the UniProt entries cited, without tags or fusion partners. Residues count along the entry.
# UniProt P56817, 22-454: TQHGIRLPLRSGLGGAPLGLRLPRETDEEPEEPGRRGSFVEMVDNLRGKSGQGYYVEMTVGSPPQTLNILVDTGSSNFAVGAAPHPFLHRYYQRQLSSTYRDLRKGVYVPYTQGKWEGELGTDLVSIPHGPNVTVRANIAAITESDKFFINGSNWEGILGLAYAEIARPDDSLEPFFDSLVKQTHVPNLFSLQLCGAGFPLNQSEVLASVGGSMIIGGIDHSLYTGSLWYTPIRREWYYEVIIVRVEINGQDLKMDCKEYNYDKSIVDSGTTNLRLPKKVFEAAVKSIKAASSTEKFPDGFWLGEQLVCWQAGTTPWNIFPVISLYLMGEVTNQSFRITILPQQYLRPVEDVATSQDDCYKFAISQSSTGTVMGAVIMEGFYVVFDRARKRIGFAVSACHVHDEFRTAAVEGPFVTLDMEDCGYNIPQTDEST
# Target: truncated human beta-secretase, BACE1 (amino acids 1-454) (Homo sapiens (Human), UniProt P56817)
# Test: BACE1 Assay (Assay 1), fluorescence quench assay
# Type: biochemical
# Procedure: The inhibitory activity of compounds was assessed by a fluorescence quench assay of BACE1 activity using commercially available substrate HiLyte Fluor™488-Glu-Val-Asn-Leu-Asp-Ala-Glu-Phe-Lys-(QXLT™ 520)-OH (SEQ ID NO:1) AnaSpec, San Jose, Calif.) and truncated human beta-secretase, BACE1 (amino acids 1-454) fused to a myc-his tag and secreted from HEK293/BACEect. cells into OptiMEM™ (Invitrogen). The substrate was dissolved at 1 mg/ml in DMSO.
# The assay was performed in the presence of OptiMEM (supernatant collected over 24 h and cleared from cellular debris by centrifugation) containing the ectodomain of BACE1, 25 μl water containing the desired 2-fold concentration of test compound and 2% DMSO, 1 μM substrate peptide, 20 mM NaOAc, pH 4.4, and 0.04% Triton-X100 in a total assay volume of 50 μl in a 384 well plate. […] The reaction was incubated at rt (dark) in an Envision® multilabel reader (Perkin Elmer) and the cleavage of the substrate was recorded as kinetic for 60 min at ex: 485 nm, em: 538 nm. […]
# The intensity of fluorescence was regressed against time in order to derive velocities of reaction in all 384 wells. […] IC50 values were calculated by fitting percent control vs. test compound concentration using Assay Explorer.
"IC50 (Table 2 comparison examples, read-out: BACE IC50 (assay 1))",IC50 (read-out: BACE1 IC50 nM (assay 1)),SMILES
35 nM,,"COC1CCC2(CC1)Cc1ccc(C#N)cc1C21N=C(N)N(CC2CCCO2)C1=O (centres unmarked) [Comparison example drawing 11, reference compound]"
,8 nM,CC[C@H]1C[C@@]2(CC[C@@H]1OC)Cc1ccc(C#N)cc1[C@]21N=C(N)N(C[C@H]2CCCO2)C1=O [Example 5]

# Like-named read-outs stand apart in the source and are kept apart here.
